Reference: ChEMBL document CHEMBL1772985, “N-(3-fluoro-4-(4-(2-methoxy or 2,3-dichlorophenyl)piperazine-1-yl)butyl)arylcarboxamides as selective dopamine D3 receptor ligands: critical role of the carboxamide linker for D3 receptor selectivity” (J Med Chem, 2011)

Sequences of proteins named here, by UniProt entry; tags and fusion partners are left off.
UniProt P08908, whole entry: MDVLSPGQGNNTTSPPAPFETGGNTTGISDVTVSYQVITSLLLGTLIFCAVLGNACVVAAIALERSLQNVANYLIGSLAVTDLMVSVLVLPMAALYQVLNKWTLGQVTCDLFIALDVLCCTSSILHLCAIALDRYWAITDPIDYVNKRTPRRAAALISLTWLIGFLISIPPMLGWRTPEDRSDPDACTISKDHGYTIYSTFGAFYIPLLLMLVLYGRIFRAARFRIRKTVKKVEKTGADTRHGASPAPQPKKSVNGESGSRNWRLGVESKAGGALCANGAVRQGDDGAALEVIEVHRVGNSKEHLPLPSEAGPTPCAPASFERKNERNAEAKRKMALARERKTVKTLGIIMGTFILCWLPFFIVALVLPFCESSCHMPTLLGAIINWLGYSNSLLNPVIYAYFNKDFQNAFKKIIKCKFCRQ
UniProt P35462, whole entry: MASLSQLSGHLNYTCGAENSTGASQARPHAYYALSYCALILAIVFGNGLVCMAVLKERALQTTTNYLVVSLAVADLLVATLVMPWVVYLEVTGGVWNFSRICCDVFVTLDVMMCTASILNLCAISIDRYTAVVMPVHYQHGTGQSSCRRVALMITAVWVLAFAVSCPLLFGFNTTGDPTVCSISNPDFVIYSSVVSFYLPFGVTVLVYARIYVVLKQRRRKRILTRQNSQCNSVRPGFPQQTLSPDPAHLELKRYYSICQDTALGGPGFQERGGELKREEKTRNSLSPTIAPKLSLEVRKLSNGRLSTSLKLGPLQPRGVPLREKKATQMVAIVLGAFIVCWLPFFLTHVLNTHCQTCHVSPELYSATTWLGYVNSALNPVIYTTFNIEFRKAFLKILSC

Key:
Homo sapiens = organism: Homo sapiens; experiment: Selectivity ratio Ki for human dopamine D2L receptor to Ki for human dopamine D3 receptor
[1] = target: 5-hydroxytryptamine receptor 1A (Homo sapiens, UniProt P08908); experiment: Agonist activity at 5HT1A receptor assessed as stimulation of [35S]GTPgammaS binding relative to control; type: functional; parameters: concentration or dose not given beside the values
D(3) dopamine receptor = D(3) dopamine receptor (Homo sapiens, UniProt P35462); experiment: Antagonist activity at human dopamine D3 receptor expressed in CHO-K1 cells assessed as inhibition of dopamine-induced recruitment of beta-arrestin-2 at 10 uM after 90 mins by beta-galactosidase assay; type: functional, cell-based

Ratio Ki (Homo sapiens): 61 | Activity [1]: 123% | inhibition (D(3) dopamine receptor): < 50%
SMILES: O=C(NCCC(F)CN1CCN(c2cccc(Cl)c2Cl)CC1)c1ccc(-c2ccccn2)cc1 (stereo not drawn)
